Results on 4 molecules are retold here after ChEMBL document CHEMBL1142388, “Carbonic anhydrase activators: activation of the human tumor-associated isozymes IX and XII with amino acids and amines” (Bioorg Med Chem, 2008).

One data set deals with N[C@H](Cc1ccccc1)C(=O)O. The settings on record: Homo sapiens; 10 uM.
The next data set has as its system N[C@@H](Cc1ccccc1)C(=O)O. To be noted: Homo sapiens; 10 uM.
In data set [1] the target is Carbonic anhydrase 9 (Homo sapiens) (UniProt Q16790). Nature of the data set: Activation of human recombinant CA9 catalytic domain by stopped-flow CO2 hydration method.
Data set [2] addresses Carbonic anhydrase 12 (Homo sapiens) (UniProt O43570). The data set is described as follows: Activation of human recombinant CA12 catalytic domain by stopped-flow CO2 hydration method.
Substrate in data set [3]: N[C@@H](Cc1ccccc1)C(=O)O
To be noted: Homo sapiens; 10 uM. The source holds these as a separate data set.

Substrate in data set [4]: N[C@H](Cc1ccccc1)C(=O)O
To be noted: Homo sapiens; 10 uM. This is another data set of the same source.

In the case of “Carbonic anhydrase 9 (Homo sapiens) (from UniProt Q16790)”, the kcat (as a rule, the maximal rate divided by the concentration of active sites) in the data set on N[C@H](Cc1ccccc1)C(=O)O was 6.1 10^5/s; in the data set on N[C@@H](Cc1ccccc1)C(=O)O, 4.7 10^5/s.

Turning to `N[C@H](Cc1ccccc1)C(=O)O`, the KA turned out to be 9.3 µM in data set [1] and 0.37 µM in data set [2].

In the case of `N[C@@H](Cc1ccccc1)C(=O)O`, the KA came to 16.3 µM in data set [1] and 1.38 µM in data set [2].

B1: Carbonic anhydrase 12 (Homo sapiens), O43570 (protein)
chain: MPRRSLHAAAVLLLVILKEQPSSPAPVNGSKWTYFGPDGENSWSKKYPSCGGLLQSPIDLHSDILQYDASLTPLEFQGYNLSANKQFLLTNNGHSVKLNLPSDMHIQGLQSRYSATQLHLHWGNPNDPHGSEHTVSGQHFAAELHIVHYNSDLYPDASTASNKSEGLAVLAVLIEMGSFNPSYDKIFSHLQHVKYKGQEAFVPGFNIEELLPERTAEYYRYRGSLTTPPCNPTVLWTVFRNPVQISQEQLLALETALYCTHMDDPSPREMINNFRQVQKFDERLVYTSFSQVQVCTAAGLSLGIILSLALAGILGICIVVVVSIWLFRRKSIKKGDNKGVIYKPATKMETEAHA
In the case of B1, the turnover number (kcat) is 12.4 10^5/s in data set [3] and 16.7 10^5/s in data set [4].
